The target of test [1] is Bcl-2-like protein 1 (Homo sapiens, UniProt Q07817). The test can be described thus: Inhibition of F-Bak (GQVGRQLAIIGDK(6-FAM)INR-amide probe binding to BCL-xl (unknown origin) incubated for 1 hr by TR-FRET assay.
In test [2] the target is Apoptosis regulator Bcl-2 (Homo sapiens, UniProt P10415). The test is described as follows: Inhibition of F-Bak (GQVGRQLAIIGDK(6-FAM)INR-amide) F-Bak(GQVGRQLAIIGDK(6-FAM)INR-amide) binding to BCL2 (unknown origin) incubated for 1 hr by TR-FRET assay.

The chains behind the UniProt entries cited, without tags or fusion partners.
UniProt Q07817, whole entry: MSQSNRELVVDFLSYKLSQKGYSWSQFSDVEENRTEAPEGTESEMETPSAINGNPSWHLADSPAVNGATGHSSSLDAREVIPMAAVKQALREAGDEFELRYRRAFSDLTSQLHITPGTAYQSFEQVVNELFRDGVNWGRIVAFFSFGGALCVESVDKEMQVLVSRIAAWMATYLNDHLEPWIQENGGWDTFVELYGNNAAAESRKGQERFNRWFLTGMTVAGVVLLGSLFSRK
UniProt P10415, whole entry: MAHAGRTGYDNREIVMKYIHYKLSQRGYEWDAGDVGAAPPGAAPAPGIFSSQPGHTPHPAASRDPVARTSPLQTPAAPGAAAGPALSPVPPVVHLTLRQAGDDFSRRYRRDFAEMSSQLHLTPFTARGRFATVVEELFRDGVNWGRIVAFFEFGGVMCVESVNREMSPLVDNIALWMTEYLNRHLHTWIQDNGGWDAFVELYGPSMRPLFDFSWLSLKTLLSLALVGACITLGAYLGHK

As usually defined, the Ki is the dissociation constant of the complex between target and ligand, obtained from inhibition or displacement. Higher therefore signals lower affinity.

Turning to `O=C(Nc1nc2ccccc2s1)c1cccc2c1CN(c1ccc(-c3ccn(Cc4ccccc4)c3)c(C(=O)O)n1)CC2`, the Ki in test [1] is 0.329 nM.
Take `Cc1c(-c2ccc(N3CCc4cccc(C(=O)Nc5nc6ccccc6s5)c4C3)nc2C(=O)O)cnn1CC1CCCCC1`: the values for the Ki in test [1] and in test [2] were 0.008 nM and 28.5 nM, respectively.

The record behind these values is ChEMBL document CHEMBL4725425, “Discovery of A-1331852, a First-in-Class, Potent, and Orally-Bioavailable BCL-X Inhibitor” (ACS Med Chem Lett, 2020).
